The results in this text go back to US9296734B2 (AMGEN INC., priority 2013, dated 2016).

Chains of the proteins cited; added tags and fusions are not shown. Residues count along the entry.
UniProt P56817, 46-501: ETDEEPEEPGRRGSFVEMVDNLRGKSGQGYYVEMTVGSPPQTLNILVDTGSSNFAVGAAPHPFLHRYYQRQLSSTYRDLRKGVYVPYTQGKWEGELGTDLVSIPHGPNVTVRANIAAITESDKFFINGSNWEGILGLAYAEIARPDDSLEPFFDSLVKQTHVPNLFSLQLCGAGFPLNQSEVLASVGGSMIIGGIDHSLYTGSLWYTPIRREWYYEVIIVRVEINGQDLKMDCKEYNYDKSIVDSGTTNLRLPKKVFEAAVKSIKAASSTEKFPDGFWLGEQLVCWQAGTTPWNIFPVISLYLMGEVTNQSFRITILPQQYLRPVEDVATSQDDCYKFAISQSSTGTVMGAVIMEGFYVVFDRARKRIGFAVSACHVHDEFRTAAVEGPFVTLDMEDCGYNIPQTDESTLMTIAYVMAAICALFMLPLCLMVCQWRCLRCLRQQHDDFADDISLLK

The IC50 is the concentration that gives 50% inhibition.

Test [1] has as its system Aβ40 in conditioned medium of cells stably expressing Amyloid Precursor Protein (APP). The test can be described thus: In vitro BACE cell-based assay (Aβ40 sandwich ELISA). The conditions noted are these: Homo sapiens, read-out: HEK cell assay IC50. The procedure:
In Vitro BACE Cell-Based Assay
The cell-based assay measures inhibition or reduction of Aβ40 in conditioned medium of test compound treated cells expressing amyloid precursor protein.
Cells stably expressing Amyloid Precursor Protein (APP) were plated at a density of 40K cells/well in 96 well plates (Costar). The cells were cultivated for 24 hours at 37° C. and 5% CO2 in DMEM supplemented with 10% FBS. The test compounds were then added to cells in 10-point dose response concentrations with the starting concentration being either 100 μM or 10 μM. The compounds were diluted from stock solutions in DMSO and the final DMSO concentration of the test compounds on cells was 0.1%. After 24 h of incubation with the test compounds the supernatant conditioned media was collected and the Aβ 40 levels were determined using a sandwich ELISA. The IC50 of the compound was calculated from the percent of control or percent inhibition of Aβ 40 as a function of the concentration of the test compound.
The sandwich ELISA to detect Aβ 40 was performed in 96 well microtiter plates, which were pre-treated with goat anti-rabbit IgG (Pierce). The capture and detecting antibody pair that were used to detect Aβ 40 from cell supernatants were affinity purified pAb40 (Biosource) and biotinylated 6E10 (Signet Labs Inc.), respectively. The optimal concentration for the pAb40 antibody was 3 μg/ml in Superblock/TBS (Pierce) that was supplemented with 0.05% Tween 20 (Sigma).
Cellular supernatants were incubated with the capture antibody for 3 h at 4° C., followed by 3 wash steps in TBS-tween (0.05%). The detecting antibody incubation was for 2 h at 4° C., again followed by the wash steps as described previously. The final readout of the ELISA is Time-Resolved Fluorescence (counts per minute) using Delfia reagents Streptavidin-Europium and Enhancement solutions (Perkin Elmer) and the Victor 2 multilabel counter (Perkin Elmer).
Background: In an ELISA, binding on a coated surface is turned into a signal by an enzyme label.

Test [2] deals with Beta Secretase enzyme (BACE) (Homo sapiens (Human), UniProt P56817). The test can be described thus: In vitro enzymatic BACE FRET assay. The conditions noted are these: read-out: BACE 1 FRET assay IC50. The format is biochemical. The procedure: In Vitro Enzymatic BACE FRET (Fluorescence Resonance Energy Transfer) Assay (Enzyme Assay Data in the Example Table I)
The assay buffer used in this screen is 0.05 M acetate, pH 4.2, 10% DMSO final, 100 uM genapol (which is a nonionic detergent, below its Critical Micelle Concentration). […] This assay is effectively started by the addition of FRET substrate (50 nM) and the combination is incubated for one hour. The FRET assay is terminated with by addition of Tris buffer, which raises the pH to neutrality, and the fluorescence is determined. The FRET substrate is a peptide with commercially available fluorophore and quencher, on opposite sides of the BACE cleavage site.

Where [3] appears, read: HEK293, average IC50, HEK cells.
[4] abbreviates: HEK293, average IC50, HEK cell assay.
Setting [5] is: average IC50, BACE enzyme assay.

SMILES strings stand for the structures. Where two headings read alike, the source gives them in different places.

As to `NC1=N[C@](CF)(c2cc(C#Cc3ccc(OC(F)F)cn3)ccc2F)C[C@@H](C(F)(F)F)O1` [Example 127, (4S,6S)-4-(5-((5-(difluoromethoxy)pyridin-2-yl)ethynyl)-2-fluorophenyl)-4-(fluoromethyl)-6-(trifluoromethyl)-5,6-dihydro-4H-1,3-oxazin-2-amine], the IC50 came to 2460 nM in test [1] (HEK293, HEK cells, average) and 2960 nM in test [2] (average).
For `Cc1cc(C(F)F)cnc1C(=O)Nc1cc(C)c(F)c([C@]2(CF)C[C@@H](C(F)(F)F)OC(N)=N2)c1` [Example 216, N-(3-((4S,6S)-2-amino-4-(fluoromethyl)-6-(trifluoromethyl)-5,6-dihydro-4H-1,3-oxazin-4-yl)-4-fluoro-5-methylphenyl)-5-(difluoromethyl)-3-methylpicolinamide] the same measures were 35 nM and 94 nM.
For `CC#CCOc1cnc(C(=O)Nc2cc(F)c(F)c([C@]3(C)C[C@@H](C(F)(F)F)OC(N)=N3)c2)c(C)c1` [Example 188, N-(3-((4S,6S)-2-amino-4-methyl-6-(trifluoromethyl)-5,6-dihydro-4H-1,3-oxazin-4-yl)-4,5-difluorophenyl)-5-(but-2-yn-1-yloxy)-3-methylpicolinamide] the same measures were 12 nM and 6 nM.
As to `COc1cnc(C(=O)Nc2cc(Cl)c(F)c([C@]3(C)C[C@@H](C(F)(F)F)OC(N)=N3)c2)c(C)n1` [Example 215, N-(3-((4S,6S)-2-amino-4-methyl-6-(trifluoromethyl)-5,6-dihydro-4H-1,3-oxazin-4-yl)-5-chloro-4-fluorophenyl)-5-methoxy-3-methylpyrazine-2-carboxamide], the IC50 in test [1] (HEK293, HEK cells, average) was 63 nM; in test [2] (average), 48 nM.
As to `NC1=N[C@](CF)(c2cc(NC(=S)c3ccc(Cl)cn3)ccc2F)C[C@@H](C(F)(F)F)O1` [Example 91, N-(3-((4S,6S)-2-amino-4-(fluoromethyl)-6-(trifluoromethyl)-5,6-dihydro-4H-1,3-oxazin-4-yl)-4-fluorophenyl)-5-chloropyridine-2-carbothioamide], the IC50 in test [1] (HEK293, HEK cells, average) was 548 nM; in test [2] (average), 86 nM.
In the case of `CNC(=O)c1ccnc(Oc2ccc(F)c([C@]3(CF)C[C@@H](C(F)(F)F)OC(N)=N3)c2)c1` [Example 96, 2-(3-((4S,6S)-2-amino-4-(fluoromethyl)-6-(trifluoromethyl)-5,6-dihydro-4H-1,3-oxazin-4-yl)-4-fluorophenoxy)-N-methylisonicotinamide], the figures for the IC50 in test [1] (setting [3]) and in test [2] (average IC50) were 3270 nM and 8130 nM, respectively.
Take `Cc1nc(OCC(F)(F)F)cnc1C(=O)Nc1cc(F)c(F)c([C@]2(C)C[C@@H](C(F)(F)F)OC(N)=N2)c1` [Example 197, N-(3-((4S,6S)-2-amino-4-methyl-6-(trifluoromethyl)-5,6-dihydro-4H-1,3-oxazin-4-yl)-4,5-difluorophenyl)-3-methyl-5-(2,2,2-trifluoroethoxy)pyrazine-2-carboxamide]: the IC50 in test [1] (HEK293, HEK cells, average) came to 49 nM; in test [2] (average), 27 nM.
Regarding `NC1=N[C@](CF)(c2cc(Nc3ncnc4sc(C(F)F)nc34)ccc2F)C[C@@H](C(F)(F)F)O1` [Example 21, (4S,6S)-4-(5-((2-(difluoromethyl)thiazolo[5,4-d]pyrimidin-7-yl)amino)-2-fluorophenyl)-4-(fluoromethyl)-6-(trifluoromethyl)-5,6-dihydro-4H-1,3-oxazin-2-amine], the IC50 in test [1] (setting [4]) worked out at 506 nM; in test [2] (setting [5]) it was 269 nM.
For `COc1ccc(C(=O)Nc2cnc(F)c([C@]3(C)C[C@@H](C(F)(F)F)OC(N)=N3)c2)nc1` [Example 63, N-(5-((4S,6S)-2-amino-4-methyl-6-(trifluoromethyl)-5,6-dihydro-4H-1,3-oxazin-4-yl)-6-fluoropyridin-3-yl)-5-methoxypicolinamide] the same measures were 24 nM and 119 nM.
Regarding `COc1ccc(C(=O)Nc2cc(F)c(F)c([C@]3(C)C[C@@H](C(F)(F)F)OC(N)=N3)c2)nc1` [Example 201, N-(3-((4S,6S)-2-amino-4-methyl-6-(trifluoromethyl)-5,6-dihydro-4H-1,3-oxazin-4-yl)-4,5-difluorophenyl)-5-methoxypicolinamide], the IC50 worked out at 15 nM in test [1] (HEK293, HEK cells, average) and 45 nM in test [2] (average).
On to `COc1cnc(C(=O)Nc2cnc(F)c([C@]3(C)C[C@@H](C(F)(F)F)OC(N)=N3)c2)cn1` [Example 70, N-(5-((4S,6S)-2-amino-4-methyl-6-(trifluoromethyl)-5,6-dihydro-4H-1,3-oxazin-4-yl)-6-fluoropyridin-3-yl)-5-methoxypyrazine-2-carboxamide], for which the IC50 in test [1] (setting [4]) is 31 nM; in test [2] (setting [5]), 102 nM.
Consider `NC1=N[C@](CF)(c2cc(Oc3ncccc3Cl)ccc2F)C[C@@H](C(F)(F)F)O1` [Example 97, (4S,6S)-4-(5-((3-chloropyridin-2-yl)oxy)-2-fluorophenyl)-4-(fluoromethyl)-6-(trifluoromethyl)-5,6-dihydro-4H-1,3-oxazin-2-amine], for which the IC50 came to 1500 nM in test [1] (setting [3]) and 993 nM in test [2] (average IC50).
As for `C[C@@]1(c2nc(NC(=O)c3ncc(Br)cc3Cl)ccc2F)C[C@@H](C(F)(F)F)OC(N)=N1` [Example 86, N-(6-((4S,6S)-2-amino-4-methyl-6-(trifluoromethyl)-5,6-dihydro-4H-1,3-oxazin-4-yl)-5-fluoropyridin-2-yl)-5-bromo-3-chloropicolinamide], the figures for the IC50 in test [1] (setting [3]) and in test [2] (average IC50) were 21.9 nM and 33.6 nM, respectively.
As to `C[C@@]1(c2cc(Nc3ncc(F)c4cc(C#N)cnc34)cnc2F)C[C@@H](C(F)(F)F)OC(N)=N1` [Example 78, 8-((5-((4S,6S)-2-amino-4-methyl-6-(trifluoromethyl)-5,6-dihydro-4H-1,3-oxazin-4-yl)-6-fluoropyridin-3-yl)amino)-5-fluoro-1,7-naphthyridine-3-carbonitrile], the IC50 was determined as 64.1 nM in test [1] (setting [3]) and 61.3 nM in test [2] (average IC50).
Turning to `Cc1nc(OCC(F)(F)F)cnc1C(=O)Nc1ccc(F)c([C@]2(CF)C[C@@H](C(F)(F)F)OC(N)=N2)c1` [Example 38, N-(3-((4S,6S)-2-amino-4-(fluoromethyl)-6-(trifluoromethyl)-5,6-dihydro-4H-1,3-oxazin-4-yl)-4-fluorophenyl)-3-methyl-5-(2,2,2-trifluoroethoxy)pyrazine-2-carboxamide], the IC50 stood at 325 nM in test [1] (setting [4]) and 49 nM in test [2] (setting [5]).
As for `COc1cnc2c(Nc3cc(F)c(F)c([C@]4(C)C[C@@H](C(F)(F)F)OC(N)=N4)c3)nccc2n1` [Example 178, (4S,6S)-4-(2,3-difluoro-5-((2-methoxypyrido[3,4-b]pyrazin-5-yl)amino)phenyl)-4-methyl-6-(trifluoromethyl)-5,6-dihydro-4H-1,3-oxazin-2-amine], the IC50 in test [1] (setting [4]) came to 240 nM; in test [2] (setting [5]), 62 nM.
With `COc1ccc(C(=O)Nc2cc(C)c(F)c([C@]3(CF)C[C@@H](C(F)(F)F)OC(N)=N3)c2)nc1` [Example 229, N-(3-((4S,6S)-2-amino-4-(fluoromethyl)-6-(trifluoromethyl)-5,6-dihydro-4H-1,3-oxazin-4-yl)-4-fluoro-5-methylphenyl)-5-methoxypicolinamide], the IC50 in test [1] (HEK293, HEK cells, average) worked out at 34 nM; in test [2] (average), 44 nM.
Turning to `C[C@@]1(c2cc(NC(=O)c3ncc(C(F)F)cc3Cl)cc(F)c2F)C[C@@H](C(F)(F)F)OC(N)=N1` [Example 198, N-(3-((4S,6S)-2-amino-4-methyl-6-(trifluoromethyl)-5,6-dihydro-4H-1,3-oxazin-4-yl)-4,5-difluorophenyl)-3-chloro-5-(difluoromethyl)picolinamide], the IC50 in test [1] (HEK293, HEK cells, average) was 15 nM; in test [2] (average) it was 58 nM.
Turning to `COc1cnc2c(Nc3ccc(F)c([C@]4(CF)C[C@@H](C(F)(F)F)OC(N)=N4)c3)nccc2c1` [Example 12, (4S,6S)-4-(2-fluoro-5-((3-methoxy-1,7-naphthyridin-8-yl)amino)phenyl)-4-(fluoromethyl)-6-(trifluoromethyl)-5,6-dihydro-4H-1,3-oxazin-2-amine], the IC50 in test [1] (setting [3]) was 163 nM; in test [2] (average IC50), 375 nM.
